Source: ChEMBL document CHEMBL4673190, “Recent developments in anticancer kinase inhibitors based on the pyrazolo[3,4-d]pyrimidine scaffold” (RSC Med Chem, 2020)

Amino acid sequences for entries named in this document (tags omitted). A change or cut given only in a name is not applied to a line headed by its entry.
UniProt P48736: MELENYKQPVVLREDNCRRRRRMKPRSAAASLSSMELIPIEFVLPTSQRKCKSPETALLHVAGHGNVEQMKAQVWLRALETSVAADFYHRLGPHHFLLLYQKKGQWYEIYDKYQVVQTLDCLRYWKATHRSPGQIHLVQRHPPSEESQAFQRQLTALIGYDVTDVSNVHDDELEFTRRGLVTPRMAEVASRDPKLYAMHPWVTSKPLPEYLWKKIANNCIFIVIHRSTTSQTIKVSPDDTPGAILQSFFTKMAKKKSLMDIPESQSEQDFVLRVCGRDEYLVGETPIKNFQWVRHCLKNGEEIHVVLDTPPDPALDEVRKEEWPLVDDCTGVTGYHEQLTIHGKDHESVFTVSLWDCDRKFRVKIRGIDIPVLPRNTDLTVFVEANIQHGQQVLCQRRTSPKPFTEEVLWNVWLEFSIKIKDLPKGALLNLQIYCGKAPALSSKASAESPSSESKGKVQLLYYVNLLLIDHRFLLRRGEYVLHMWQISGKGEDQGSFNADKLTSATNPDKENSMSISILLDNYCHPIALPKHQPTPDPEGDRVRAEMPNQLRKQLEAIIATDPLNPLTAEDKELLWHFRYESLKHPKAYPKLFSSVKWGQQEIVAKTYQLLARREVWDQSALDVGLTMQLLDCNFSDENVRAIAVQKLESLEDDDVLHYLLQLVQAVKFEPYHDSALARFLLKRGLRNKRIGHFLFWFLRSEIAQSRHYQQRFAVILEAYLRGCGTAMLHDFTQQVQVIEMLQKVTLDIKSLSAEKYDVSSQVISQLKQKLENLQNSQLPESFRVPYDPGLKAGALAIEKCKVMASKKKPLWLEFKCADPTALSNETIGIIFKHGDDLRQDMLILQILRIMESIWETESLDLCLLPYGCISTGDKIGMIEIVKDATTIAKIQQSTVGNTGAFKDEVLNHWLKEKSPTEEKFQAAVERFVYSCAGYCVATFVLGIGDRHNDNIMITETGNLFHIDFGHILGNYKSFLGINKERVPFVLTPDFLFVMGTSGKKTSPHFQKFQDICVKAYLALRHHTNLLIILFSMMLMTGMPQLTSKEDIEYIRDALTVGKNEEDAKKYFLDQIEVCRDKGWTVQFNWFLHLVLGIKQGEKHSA

Molecular target: Phosphatidylinositol 4,5-bisphosphate 3-kinase catalytic subunit gamma isoform (Homo sapiens, UniProt P48736)

In the case of `CC(C)n1nc(-c2ccc3oc(N)nc3c2)c2c(N)ncnc21` [SAPANISERTIB], the IC50 is reported as > 0.2 µM.
